Earlier results, collected in patent US20250161335A1, “Drug and Method for Nucleoside (Acid) Drug Therapy of Limiting Chronic Hepatitis B” (Shanghai Hep Pharmaceutical Co., Ltd., priority 2022, published 2025).

Test system: HBV

Substance: PegIFNα-2a: pegylated interferon α-2a (40 KD)
- proportion of patients with HBV DNA <2×10^4 copies/ml (HBeAg-negative patients (60% Asians), 48 weeks treatment, 24 weeks follow-up after withdrawal): 43%
- proportion of patients with HBV DNA <2×10^4 copies/ml (HBeAg-negative patients, value in brackets 'after followed up for 24 weeks'): 42%
- HBeAg seroconversion rate (HBeAg-positive chronic hepatitis B patients (87% Asians), 48 weeks treatment, 24 weeks follow-up after withdrawal): 32%

Like-named read-outs stand apart in the source and are kept apart here.
